Measured values from US12168802B2, “Methods of diagnosing and treating CD55 deficiency, hyperactivation of complement, angiopathic thrombosis and protein losing enteropathy (CHAPLE), a newly identified orphan disease” (The United States of America, as represented by the …, priority 2016, dated 2024).

Test: Clinical course of CHAPLE patients under replacement therapy
Assay type: in vivo, human
Conditions: albumin infusion, patients require ongoing treatment
Protocol: Study Participants. Three initial patients, their unaffected parents, and then seven additional patients presenting with a similar clinical presentation were evaluated (FIGS. 1A and 3). The patients were followed in Marmara University, Istanbul, Turkey; Cerraphasa University, Istanbul, Turkey; Baskent University, Ankara, Turkey; Gazi University, Ankara, Turkey, and Sami Ulus Hospital, Ankara, Turkey. All of the patients were enrolled in a clinical protocol which had been approved by the institutional review boards of the respective institutions and NIH. All study participants or their parents provided written informed consent.
Patient 1.1, a child born to consanguineous Turkish parents, presented with bloody diarrhea and vomiting, and continued with episodes throughout childhood. They were admitted to hospital with persistent diarrhea, pneumonia, and facial/extremity edema, for which they received antibiotics and albumin replacement therapy. […]
Patient 2.1, a person born to consanguineous Turkish parents, presented with fever, productive coughing and hemoptysis when they were diagnosed with pneumonia. […] When they were […] their serum immunoglobulins levels were determined due to suspected immunodeficiency. […] In order to assess the patient's capacity to produce specific antibodies, we evaluated isohemaglutinin titers and antibody response to pneumococcal vaccine, with normal results. […]

## albumin: albumin infusion / replacement therapy given to patients
  symptoms of CHAPLE patients: only a transient palliation
